Measured values reported in PMC12009342 (Communications Biology, 2025).

Target: T1, recombinant human EGFR (extracellular domain with C-terminal 6-His tag) (Homo sapiens, UniProt P00533)
T1 construct: also called recombinant monomeric EGFR; source: ExpiCHO, transient transfection, purified (HisTrap Excel, Sephacryl S-200 SEC); not shown: His6, C-terminal, kept
Assay: BLI; BLItz; His-tagged antigen captured on Anti-Penta-HIS (HIS1K) biosensor at 25 ng/µL for 300 s; Fab in solution at 4 concentrations; association 180 s, dissociation 300 s in PBS
Conditions: both partners purified

B1: NC-Cow1 Fab ulCDR-swap variant var3 (ulCDR of 60E11) (Fab)
VH: QVQLRESGPSLMKPSQTLSLTCTVSGSSLNDKSVGWVRQAPGKALQWLGSVDTSGNTDYNPGLKSRLSITKDNSKSRISLTVTGMTTEDSATYYCITVHQRTRKTCPDGWRDGSDCPYGHRCGDYDCCGYGCYDGRGTNRFTGVVESYTYEWYVDAWGQGLLVTVSS
VL: SYELTQPSSVSGSLGQRVSVTCSGSSSNVGNGYVSWYQLIPGSAPRTIIYGDTSRASGVPERFSGSRSGNTATLTISSLQAEDEADFFCASPDDSSSNAVFGSGTTLTVL
- Kd: 0.014 µM

B2: NC-Cow1 Fab ulCDR-swap variant var4 (ulCDR of 60H05) (Fab)
VH: QVQLRESGPSLMKPSQTLSLTCTVSGSSLNDKSVGWVRQAPGKALQWLGSVDTSGNTDYNPGLKSRLSITKDNSKSRISLTVTGMTTEDSATYYCITVHQKTNKLKSCPDGYTSGVECRFRGYTCANDGCWRVCSFTTCSGWMPASDTYRYEYHVDAWGQGLLVTVSS
VL: B1 VL
- Kd: 0.043 µM
